From ChEMBL document CHEMBL1125363, “Novel piperidine sigma receptor ligands as potential antipsychotic drugs” (J Med Chem, 1992)

By UniProt entry, the sequences of proteins in these tests, tags left out.
UniProt O55242, whole entry: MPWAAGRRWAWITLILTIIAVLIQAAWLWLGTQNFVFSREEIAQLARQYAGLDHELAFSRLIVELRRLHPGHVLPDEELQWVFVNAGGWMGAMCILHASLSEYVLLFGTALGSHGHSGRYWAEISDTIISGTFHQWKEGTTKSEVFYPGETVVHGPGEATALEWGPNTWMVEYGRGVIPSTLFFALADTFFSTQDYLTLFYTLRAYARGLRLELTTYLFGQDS
UniProt P61168, whole entry: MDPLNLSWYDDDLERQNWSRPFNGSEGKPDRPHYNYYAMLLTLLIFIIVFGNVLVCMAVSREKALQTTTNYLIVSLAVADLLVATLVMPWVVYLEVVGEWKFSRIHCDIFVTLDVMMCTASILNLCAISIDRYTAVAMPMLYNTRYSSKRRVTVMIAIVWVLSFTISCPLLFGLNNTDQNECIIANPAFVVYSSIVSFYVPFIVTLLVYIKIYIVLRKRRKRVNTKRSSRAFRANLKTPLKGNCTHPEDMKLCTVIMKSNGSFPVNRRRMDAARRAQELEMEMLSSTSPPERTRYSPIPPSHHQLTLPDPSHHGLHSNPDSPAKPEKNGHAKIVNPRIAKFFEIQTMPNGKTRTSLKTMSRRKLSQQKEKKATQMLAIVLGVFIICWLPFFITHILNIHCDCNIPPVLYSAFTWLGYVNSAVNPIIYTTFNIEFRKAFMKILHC

Columns and labels:
[1] = target: Sigma non-opioid intracellular receptor 1 (Mus musculus, UniProt O55242); test: In vitro binding affinity for the mouse sigma opioid receptor
D(2) dopamine receptor = D(2) dopamine receptor (Mus musculus, UniProt P61168); test: In vitro binding affinity towards dopamine receptor D2

Row | Ki [1] [nM] | IC50 (D(2) dopamine receptor) [nM] | SMILES
1 | 4 |  | Cl.Fc1ccc(COCC2CCN(Cc3ccc4ccccc4c3)CC2)cc1
2 |  | 55 | O=C(CCCN1CCC(C(=O)Cc2ccc(F)cc2)CC1)c1ccc(F)cc1
3 |  | 488 | Cl.Fc1ccc(COCC2CCN(Cc3ccc(Cl)cc3)CC2)cc1
